This assay deals with exosome fraction B derived from human breast cancer cells (MDA-MB-231-luc-D3H2LN). Put plainly: Extraction of microRNA (miR-21) from exosomes derived from human breast cancer cells, real-time PCR. The format is biochemical. To be noted: 100 μM peptide, 1×10^11 particles/mL exosomes, 0.4 U/μL RNase inhibitor, 37° C., 24 hours; without peptide 8×10^−14M. Here is the method:
A cell suspension of cell line MDA-MB-231-luc-D3H2LN derived from human breast cancer (=MM231-luc-D3H2LN, provided by the National Cancer Center Research Institute) was seeded in a dish containing RPMI 1640 medium (manufactured by Thermo Fisher Scientific Inc.) containing 10% fetal bovine serum. Subsequently, the cell line was grown at 37° C. under the condition that CO2 concentration was set to 5 volume % using a CO2 incubator, and then the medium was replaced with Advanced RPMI 1640 medium (manufactured by Thermo Fisher Scientific Inc.), followed by culturing for 48 hours, and therefore the culture solution containing exosomes was obtained. This culture solution was centrifuged at 2,000 G for 10 minutes to remove the precipitate, followed by centrifugation at 110,000 G for 70 minutes to precipitate the exosomes, and therefore an exosome fraction B was recovered. […]
The reverse transcription PCR solution obtained by the above described method was processed and by comparing the number of cycles on a calibration curve of microRNA using Taqman Assay primer (manufactured by Thermo Fisher Scientific Inc., Taqman microRNA Assays, Taqman Assay primer, and hsa-mir-21 or hsa-mir-16) and Real-Time PCR Master Mixes (manufactured by Thermo Fisher Scientific Inc., TaqMan Universal PCR Master Mix II, w/UNG) with StepOnePlus Real-Time PCR System, MiR-21 or miR-16 was quantified. […]

PNC-28: the “Destructive activity (concentration of microRNA miR-21 in eluate)” value was “D (the concentration of microRNA is less than 10×10^−14M)”.

These data come from US10071133B2, “Method for destroying exosomes, kit for destroying exosomes, and method for isolating exosomes derived from normal cells” (priority 2015, dated 2018).
